Results taken from patent publication US12098145B2 (Libra Therapeutics, Inc., priority 2022, dated 2024).

By UniProt entry, the sequences of proteins in these tests, tags left out.
UniProt Q9GZU1, whole entry: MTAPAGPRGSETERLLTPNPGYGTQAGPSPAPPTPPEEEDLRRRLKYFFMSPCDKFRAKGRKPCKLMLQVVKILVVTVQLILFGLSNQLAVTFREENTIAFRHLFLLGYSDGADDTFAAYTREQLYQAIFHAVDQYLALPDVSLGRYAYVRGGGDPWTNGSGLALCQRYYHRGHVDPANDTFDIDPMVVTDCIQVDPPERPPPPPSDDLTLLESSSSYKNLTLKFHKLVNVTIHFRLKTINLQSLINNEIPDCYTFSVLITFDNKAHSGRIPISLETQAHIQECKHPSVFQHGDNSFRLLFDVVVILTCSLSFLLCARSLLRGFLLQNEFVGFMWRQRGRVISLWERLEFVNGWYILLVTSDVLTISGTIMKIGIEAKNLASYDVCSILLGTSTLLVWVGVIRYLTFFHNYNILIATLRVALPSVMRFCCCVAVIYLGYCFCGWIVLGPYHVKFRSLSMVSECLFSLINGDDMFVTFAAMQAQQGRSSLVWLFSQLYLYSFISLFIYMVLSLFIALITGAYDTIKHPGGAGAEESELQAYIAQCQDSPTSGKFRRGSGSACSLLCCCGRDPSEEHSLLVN

How the values were obtained:
TFEB = TFEB translocation assay (TFEB reporter in U2OS cells, imaging); settings: U2OS cell line with TFEB reporter, 2 hours incubation, nucleus to cytoplasm ratio, normalized to Torin-1
Description: Example B: TFEB Translocation Assay
Reporter TFEB: the reporter is fused to a sequence of monomeric red fluorescent protein.
The reporter TFEB have been stably expressed in U2OS cell line and used as read-out.
Experiments were performed in 384 MTP well format. Cells were seeded in 384-w at a density of 4000 cells/well in 20 μl/well complete growth medium without antibiotics. Twenty-four hours later, cells were treated with compounds and incubated for further 2 hours. Then the cells were imaged and assayed for the response to various compounds using the reporter for TFEB expressed in the cells as readout.
The experiments were performed in a 384-well format according to the following procedure: • 24 h after seeding, cell culture medium was carefully removed and replaced with 20 μl of Opti-MEM (30′ incubation at 37° C. before compound addition) • Then, cells were incubated with compounds diluted in Opti-MEM+0.015% Tween 80 at the desired concentration, with the reference molecule (agonist) Torin-1 at a top concentration of 1 μM (max signal), and with the other reference molecule (agonist) MLSA-5 at top concentration of 20 μM for 2 hours at 37° C. and 5% CO2. […] The image analysis involved the following steps: flat-field illumination correction, nuclei segmentation, cytoplasm segmentation and calculation of intensity fluorescence in the cytosol and nuclei compartments. […]

TRPML1 = TRPML1 (Homo sapiens, UniProt Q9GZU1); assay: Cellular TRPML1 assay (FLIPR, GCaMP6f calcium read-out); assay type: cell-based; settings: HEKT-REx/GCaMP6f/TRPML1 cells, FLIPR TETRA, kinetic response over 300 seconds
Description: Example A: Cellular TRPML1 Assay
The final clone for the TRPML1 assay is HEKT-REx/GCaMP6f/TRPML1. GCaMP6f is a genetically encoded calcium indicator that is stably expressed in this cell line and used as a fluorescent read-out.
Experiments were performed in 384 MTP format. Cells are seeded at 15000 cells/well in 20 μl/well of Optimem+0.5% FBS without selection antibiotics. Twenty-four hours later, cells are assayed for the response to various compounds using the Ca^2+ sensitive GCaMP6f protein stably expressed in the cells as readout.
The experiment was performed in a 384-well format according to the following procedures: • 24 h after seeding, the cells were pre-incubated at room temperature for about 10 min. • Started the experiment at the FLIPR^TETRA by injecting 10 μL/w of 3× concentrated test compounds and controls in Ca^2+ free Tyrode's buffer. Monitored the kinetic response over a period of 300 seconds. • Final DMSO concentration: 0.5%
Data from FLIPR^TETRA measurements were analyzed with the Genedata Screener© software.

Structure (SMILES): COCc1oc(N2CCCC2)nc1C(=O)Nc1ccc(N2CCCCC2)c(F)c1
- TFEB Translocation pEC50 (TFEB): B (B = 6.0-5.0)
- TRPML1 FLIPR pEC50 (TRPML1): B (B = 6.0-5.0)
